US7951954B2, “Bezothiazol derivatives as Beta2 adrenoreceptor agonists” (AstraZeneca AB, priority 2006, dated 2011)
Structures can show the parent of a compound that is named as a salt.

The chains behind the UniProt entries cited, without tags or fusion partners.
UniProt P07550, whole entry: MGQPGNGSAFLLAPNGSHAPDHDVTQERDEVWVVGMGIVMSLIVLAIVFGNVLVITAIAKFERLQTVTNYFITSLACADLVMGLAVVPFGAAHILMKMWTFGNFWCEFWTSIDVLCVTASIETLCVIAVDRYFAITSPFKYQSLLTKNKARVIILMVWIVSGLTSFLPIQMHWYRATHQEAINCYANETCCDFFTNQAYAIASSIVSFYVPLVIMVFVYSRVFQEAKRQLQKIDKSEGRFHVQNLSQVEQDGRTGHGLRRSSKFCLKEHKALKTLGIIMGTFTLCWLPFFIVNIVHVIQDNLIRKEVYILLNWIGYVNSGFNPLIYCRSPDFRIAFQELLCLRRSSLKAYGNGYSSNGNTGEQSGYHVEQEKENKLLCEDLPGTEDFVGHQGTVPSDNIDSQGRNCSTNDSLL

Target: T1, Adrenergic β2 (Homo sapiens, UniProt P07550)
T1 construct: endogenous in cells; host or cells: H292 cells
Assay: Adrenergic β2 mediated cAMP production in H292 cells (AlphaScreen cAMP detection)
Type: cell-based
Conditions: 300 μM rolipram, 10 minutes with compound, read-out: β2 pEC50 (converted)

| SMILES | EC50 |
| --- | --- |
| COc1ccccc1CNCc1cccc(CCNC[C@H](O)c2ccc(O)c3[nH]c(=O)sc23)c1 [Example 36, 4-Hydroxy-7-[1R-hydroxy-2-(2-{3-[(2-methoxy-benzylamino)-methyl]-phenyl}-ethylamino)-ethyl]-3H-benzothiazol-2-one bis-trifluoroacetate salt] | 631 pM |
| O=c1[nH]c2c(O)ccc([C@@H](O)CNCCc3cccc(CNCc4ccccc4Cl)c3)c2s1 [Example 3, 7-[2-(2-{3-[(2-Chloro-benzylamino)-methyl]-phenyl}-ethylamino)-1R-hydroxy-ethyl]-4-hydroxy-3H-benzothiazol-2-one bis-trifluoroacetate salt] | 316 pM |
